Test system: A. baumannii clinical isolate NY F
Assay: Antibiotic susceptibility profile
Type: cell-based, Acinetobacter baumannii

Compound | Antibiotic susceptibility
C[C@H]1COc2c(N3CCN(C)CC3)c(F)cc3c(=O)c(C(=O)O)cn1c23 [LVX, Levofloxacin] | I
CN(C)c1ccc(O)c2c1C[C@H]1C[C@H]3[C@H](N(C)C)C(O)=C(C(N)=O)C(=O)[C@@]3(O)C(O)=C1C2=O [MIN, Minocycline] | S

Reference: patent publication US20080090734A1, “DRUG SCREENING AND TARGET IDENTIFICATION USING SPR IMAGING OF TARGET PROTEIN ARRAYS” (The Trustees of California State University, priority 2006, published 2008)
